{
  "source": "patent US20260027226A1",
  "about": "(Pheon Therapeutics Ltd, priority 2022, published 2026)",
  "assay": "S9 liver studies, human and monkey (summary)",
  "conditions": "human and cyno S9",
  "data": [
    {"substance": "Trastuzumab-DM1", "values": [
      {"measurement": "Detected Metabolites in Liver Microsome S9 Studies", "value": "DM1"}
    ]}
  ]
}
